These results are taken from patent US20060293323A1, “Therapeutic Combinations of erb B Kinase Inhibitors and Antineoplastic Therapies” (priority 2002, published 2006).

In this assay the test system is 253J B-V human bladder carcinoma. Conditions: paclitaxel alone 8 mg/kg IP days 14, 20 and 27.

As to `CC(=O)O[C@H]1C(=O)[C@@]2(C)[C@H]([C@H](OC(=O)c3ccccc3)[C@]3(O)C[C@H](OC(=O)[C@H](O)[C@@H](NC(=O)c4ccccc4)c4ccccc4)C(C)=C1C3(C)C)[C@]1(OC(C)=O)CO[C@@H]1C[C@@H]2O` [paclitaxel, reference compound], the bladder tumor mass result was “did not significantly reduce the bladder tumor mass”.
